Measured values: US8754051B2, “Peptide modulators of the δPKC interaction with the d subunit of F1Fo ATP synthase/ATPase and uses thereof” (Georgia Regents Research Institute, Inc., priority 2009, dated 2014)

Legend:
[1] = Trypsin digestion of peptide alone, anti-Flag Western blot; settings: 100 units/ml trypsin, 20 minutes
[2] = system: isolated rat hearts, ischemia/reperfusion injury; experiment: Cardiac troponin I release (ELISA) after ischemia/reperfusion in isolated rat hearts; settings: 20 nM for first 20 min of reperfusion
[3] = system: subsarcolemmal (SSM) and interfibrillar (IFM) mitochondria of isolated rat hearts; experiment: Peptide uptake into SSM and IFM mitochondria of Langendorff-perfused rat hearts
[4] = system: isolated rat hearts, ischemia/reperfusion injury; experiment: Infarct size (TTC staining) after ischemia/reperfusion in isolated rat hearts; settings: 20 nM for 20 min at onset of reperfusion; 20 min ischemia/90 min reperfusion
[5] = system: neonatal rat cardiac myocytes (NCMs) mitochondria; experiment: Peptide uptake into gradient-purified mitochondria of NCMs (anti-Flag Western blot); settings: 100 nM

Which results are given for “YGRKKRRQRRR-MLATRALSLIGKRAISTSVC-AGRKLALKTIDWVSF-DYKDDD DK”?
sensitivity to digestion with trypsin [1]: extensive sensitivity; reduction of cardiac troponin I fragment release compared to scrambled sequence peptide [2]: 55±11%; Flag immunoreactivity after in vitro trypsin incubation of SSM and IFM ([3]; 20 nM perfused hearts): no loss in Flag immunoreactivity; delivery to IFM ([3]; 20 nM, 60 minute perfusion): substantial delivery; delivery to SSM compared with IFM ([3]; 20 nM, perfusion 20 or 60 minutes): more efficient; reduction of infarct size [4]: 34±8%; uptake of peptide into gradient-purified mitochondria ([5]; 2 hrs at 37° C., NCMs): substantial uptake; peptide uptake signal after trypsin incubation of isolated mitochondria ([5]; 2 hrs, mitochondria incubated with 100 units/ml trypsin): not altered
